# Molecular target: recombinant Water-Soluble Chlorophyll Protein (WSCP) from Lepidium virginicum with a C-terminal hexahistidyl tag (Lepidium virginicum) (UniProt O04797)
# Experiment: SEC; WSCP reconstituted with Chl a; Superose 12 10/300 GL, 20 mM sodium phosphate pH 7.8, room temperature
substance,measurement,value
recombinant Water-Soluble Chlorophyll Protein (WSCP) from Lepidium virginicum with a C-terminal hexahistidyl tag (from UniProt O04797 27-206) (natural protein),stoichiometry N,4

# From article PMC5548782
